This is an account of results in patent publication US20240082358A1, “COMPOSITION COMPRISING INHIBITOR AGAINST EXPRESSION OF EXOSOMAL PD-L1 AS ACTIVE INGREDIENT FOR ENHANCING ANTICANCER EFFECT” (KYUNGPOOK NATIONAL UNIVERSITY INDUSTRY-ACADEMIC COOPERATION …, priority 2019, published 2024).

For series [1], the system named is PD-L1. As to the kind of experiment: PD-L1 gene expression in melanoma cells by real-time polymerase chain reaction. The conditions noted are these: melanoma cells pretreated with IL-2; real-time PCR; FIG. 1(A), FIG. 2(A). It is filed as cell-based. Here is the method:
After extracting mRNA (mRNA extraction kit, #9767; TaKaRa) from melanoma cells and melanoma cells pretreated with IL-2, the concentration of mRNA was measured using nanodrop (DS-11 Series Spectrophotometer; DeNovix). After synthesizing cDNA (SuperScript III First-Strand Synthesis System, Ref 18080-051; invitrogen) with 100 ng of mRNA, the gene expression levels of mouse PD-L1 (primer set: Forward: AGTTCCCAAAACATGAGGAT (SEQ ID NO: 1), Reverse: CACGTACAAGTCCTTTGGAG (SEQ ID NO: 2)) and human PD-L1 (primer set: Forward: GGTCATCCCAGAACTACCTC (SEQ ID NO: 3), Reverse: ACGGAAGATGAATGTCAGTG (SEQ ID NO: 4)) were analyzed by performing real-time polymerase chain reaction.
(Real-time PCR tracks product formation cycle by cycle.)

The test system of series [2] is melanoma cells (B16F10). The series is described as follows: Nanoparticle tracking analysis of exosomes derived from melanoma cells. It is filed as cell-based, mouse. Conditions: B16F10 treated with IL-2 10 μg/ml, 48 hours, FIG. 3(B). Here is the method:
After treating melanoma cells (B16F10: 5×10^4 cells) with IL-2 at a concentration of 10 μg/ml and culturing for 48 hours, the size and concentration of exosomes derived from the culture supernatant were measured using fast video capture and a Nanosight LM10 (Malvern Instruments) equipped with particle tracking software.

In series [3] the test system is Rab 27a. As to the kind of experiment: Western blot of Rab protein involved in exosome secretion in melanoma cells. It is filed as cell-based. Conditions: melanoma cells treated with IL-2, FIG. 5(C). On the procedure: (§1) In order to re-verify the decrease in the number of exosomes derived from melanoma cells, the expression level of Rab protein involved in exosome secretion and expression was measured by Western blot. Cytoplasm or exosome proteins were separated by SDS-PAGE and transferred to a nitrocellulose membrane. Then, they were cultured with each of primary antibodies (ab18211; abcam/Rab5, ab50533; abcam/Rab7, ab55667; abcam/Rab 27a, #4970; Cell signaling/β-actin, ab10931; abcam/PD-L1), and with HRP conjugated secondary antibodies. Images were visualized using enhanced chemiluminescence (ECL) detection reagent (#34095; Thermo Scientific, #RPN2209; GE Healthcare) and quantified using ECL hyperfilm (AGFA, Morstel).
Background: A western blot detects proteins with antibodies after separation by electrophoresis.

Series [4] has as its system PD-L1 (programmed death ligand 1) protein. As to the kind of experiment: Western blot / immunostaining of PD-L1 protein in melanoma cells. In kind it is cell-based. Conditions: melanoma cells treated with IL-2, re-verified by immunostaining, FIG. 1(B), 2(B), 2(D). On the procedure:
as §1
In addition, to evaluate an effect of IL-2 in melanoma, the expression of PD-L1 (programmed death ligand 1) protein, which is known to be the most important for immune evasion of cancer cells, was measured.

The test system of series [5] is exosomal PD-L1. The series is described as follows: Western blot and flow cytometry of exosomal PD-L1 derived from melanoma. In kind it is cell-based. Conditions: melanoma treated with IL-2; Western blot, confirmed by flow cytometry; FIG. 4(A), 4(B). Here is the method: Control melanoma cells were seeded at a density of about 2×10^6 cells/well, and cultured for 24 hours in DMEM medium without fetal bovine serum. After that, in order to isolate exosomes, each supernatant obtained from the cells was successively centrifuged at 300×g, 2500×g, and 10,000×g. Then, the supernatant was filtered through a 0.2 μm syringe filter and centrifuged at 120,000×g. The exosome pellet was resuspended in PBS and centrifuged again at 120,000×g. The purified exosome pellet was resuspended in PBS or 1× cell lysis buffer for the next experiment.
as §1, with “Morstel). […]” for “Morstel).”

The test system of series [6] is melanoma cells (B16F10). As to the kind of experiment: Co-culture assay of IL-2 treated melanoma cells and cytotoxic T cells. It is filed as cell-based, mouse. The conditions noted are these: melanoma cells pretreated with IL-2, co-culture with CTLL-2 cells (1:1 to 1:10); FIG. 8(B), 9(B). Here is the method: Melanoma cells (B16F10-luc-g5) having a cytoluminescent gene were used and analyzed using IVIS spectrum (PerkinElmer).
Melanoma cells were seeded in a 96-well plate at a density of about 5×10^3 cells/well, and melanoma cells pretreated with IL-2 were used as a control. After 48 hours of culture, the cells were cultured with different ratios of CTLL-2 cells (1:1 to 1:10). At the end of culture, MTS reagent was added to each well and cells cultured at 37° C. for 2 hours. After removing MTS containing the supernatant from each well, absorbance was measured at 490 nm using a microplate reader.

The test system of series [7] is PD-L1. The series is described as follows: PD-L1 expression in cancer tissue of melanoma transplanted mouse model. In kind it is in vivo. The conditions noted are these: mouse injected with IL-2; Western blot and immunochemical staining; FIG. 11. Here is the method:
B16F10 mouse melanoma cells 1×10 6 were subcutaneously injected into the right flank of balb/c mouse. After 10 days from the start of the experiment, PBS and rhIL-2 (50,000 IU/animal) were directly injected into the cancer tissue every day for 6 days. Thereafter, the cancer tissue (long axis*short axis 2*0.52) of the mouse was measured and compared once every 2 days using an engineering digital caliper.
After extracting the cancer tissue from the mouse of the above experiment and rapid cooling it using liquid nitrogen, RBC lysis buffer was used to remove red blood cells in the tissue, and then cells were obtained by centrifugation at 550×g. The supernatant was then centrifuged continuously at 300×g, 2,500×g, and 10,000×g. Then, the expression of PD-L1 was checked by Western blot and immunochemical staining using the isolated cells.

“IL-2: cytokine IL-2, used as a treatment for stage 4 melanoma; inhibitor against expression of exosomal PD-L1”: the “reduction of gene expression of PD-L1 compared to the control group” value in series [1] was “about 50%”. In addition, the “number of exosomes compared to the control group” value in series [2] was “decreased”. For the same substance, the “protein expression of Rab 27a compared to the control group” value in series [3] is “significantly reduced”. In addition, the “protein expression of PD-L1 compared to the control group” value in series [4] is given as “significantly reduced”. The “expression of exosomal PD-L1 compared to the control group” value in series [5] is recorded as “significantly reduced”. Further, the “viability of melanoma cells in co-culture with cytotoxic T cells” value in series [6] was “significantly reduced”. Further, in series [7], the “expression level of PD-L1 in cancer tissue compared to the control group” value is “significantly reduced”.
